{"source": "PubChem BioAssay AID652067", "about": "(The Scripps Research Institute Molecular Screening Center, 2013)", "note": "The list shows a part of the results, in another mix than the full data. Some tests of the compounds listed are not included; inactive here does not mean inactive elsewhere. Calls of active or inactive are those of the source.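 How the source made its calls: active means activation above the mean of all tested compounds plus 3 SD (cut at about 5.5% in these data); inactive means the rest.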"}
{"system": "DAF-12 nuclear receptor (Haemonchus contortus)", "test": "H. contortus DAF-12 nuclear receptor activators, primary screen, cell-based, luminescence, HEK293, lit1-tk-luc reporter (AID 652067);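 further: 100% = response to 3 µM Δ7-dafachronic acid high control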", "conditions": "HEK293 hcDAF-12 lit1-tk-luc reporter, at 6.8 µM, active compounds read high, 0% DMSO, 100% Δ7-dafachronic acid"}
{"smiles": "CN(C)C1(CNC(=O)c2ccc(Br)cc2)CCCCC1", "activation": "inactive: -0.15%"}
{"smiles": "COc1cc(C(=O)NCC2(N(C)C)CCCCC2)c([N+](=O)[O-])cc1OC", "activation": "inactive: 1.14%"}
{"smiles": "COc1ccc(Cl)cc1C(=O)NCC1(N(C)C)CCCCC1", "activation": "inactive: -1.79%"}
{"smiles": "COc1cccc(C(=O)NCC2(N3CCCCC3)CCCCC2)c1", "activation": "inactive: 0.4%"}
{"smiles": "O=C(NCC1(N2CCCCC2)CCCCC1)c1cccc(Cl)c1", "activation": "inactive: -0.07%"}
{"smiles": "O=C(OC1CN2CCC1CC2)C(CO)(c1ccccc1)c1ccccc1", "note": "(stereo unspecified)", "activation": "inactive: 0.17%"}
{"smiles": "COc1ccc(Br)c(C(=O)NCC2(N3CCCCC3)CCCCC2)c1", "activation": "inactive: -0.87%"}
{"smiles": "C=C(C)C#CC(O)(C(=O)OC1CCN(C)CC1)c1ccccc1", "note": "(stereo unspecified)", "activation": "inactive: -0.46%"}
{"smiles": "CN(C)c1cccc(C(=O)NCC2(N(C)C)CCCCC2)c1", "activation": "inactive: -0.69%"}
{"smiles": "O=C(OCCN1CCCC1)C(O)(c1ccccc1)c1ccccc1", "activation": "inactive: -2.22%"}
{"smiles": "CC(C)Oc1ccc(C(=O)NCC2(N(C)C)CCCCC2)cc1", "activation": "inactive: -2.66%"}
{"smiles": "O=C(NCC1(N2CCCCC2)CCCCC1)c1cc([N+](=O)[O-])ccc1Cl", "activation": "inactive: -0.27%"}
{"smiles": "CN1[C@@H]2CC[C@H]1CC(OC(=O)C(O)(c1ccccc1)c1ccccc1)C2", "note": "(stereo partly specified)", "activation": "inactive: -1.36%"}
{"smiles": "CC(C)N1C(=O)CC2(CCN(CCOC(=O)C(O)(c3ccccc3)c3ccccc3)CC2)C1=O", "activation": "inactive: 0.82%"}
{"smiles": "COc1cc(SC)ccc1C(=O)NCC1(N(C)C)CCCCC1", "activation": "inactive: -0.38%"}
{"smiles": "CCN(CC)CC(C)C(C)OC(=O)C(O)(c1ccccc1)c1ccccc1", "note": "(stereo unspecified)", "activation": "inactive: 0.61%"}
{"smiles": "Cc1ccc(C(=O)NCC2(N3CCCCC3)CCCCC2)cc1", "activation": "inactive: 3.46%"}
{"smiles": "CN(C)C1CCCC1OC(=O)C(O)(c1ccccc1)c1ccccc1", "note": "(stereo unspecified)", "activation": "inactive: -0.93%"}
{"smiles": "CN(C)c1ccc(C(=O)NCC2(N(C)C)CCCCC2)cc1", "activation": "inactive: -0.32%"}
{"smiles": "Cc1ccccc1C(=O)NCC1(N2CCCCC2)CCCCC1", "activation": "inactive: -0.65%"}
{"smiles": "O=C(NCC1(N2CCCCC2)CCCCC1)c1cc(F)c(F)cc1Cl", "activation": "inactive: -0.38%"}
{"smiles": "C=CCN1CCN(CCOC(=O)C(O)(c2ccccc2)c2ccccc2)CC1", "activation": "inactive: -1.75%"}
{"smiles": "O=C(NCC1(N2CCCCC2)CCCCC1)c1cccc(Br)c1", "activation": "inactive: 2.52%"}
{"smiles": "Cc1cc(C(=O)NCC2(N3CCCCC3)CCCCC2)ccc1[N+](=O)[O-]", "activation": "inactive: -0.91%"}
{"smiles": "CCN1CCCC(OC(=O)C2(O)c3ccccc3C=Cc3ccccc32)C1", "note": "(stereo unspecified)", "activation": "inactive: -0.96%"}
{"smiles": "COc1ccc(C(=O)NCC2(N(C)C)CCCCC2)cc1", "activation": "inactive: -0.77%"}
